Experimental data reported in patent US7495109B2, “Nociceptin analogs” (dated 2009).

Assays:
[1] = target: human opioid receptor-like receptor (ORL-1) (Homo sapiens, UniProt P41146); experiment: Nociceptin affinity at the ORL1 receptor ([35S]GTPgS binding, HEK-293 membranes); details: read-out: Nociceptin Affinity calc Ki, membranes from recombinant HEK-293 cells expressing human ORL-1
Mu opioid receptor = Mu opioid receptor (Homo sapiens, UniProt P35372); experiment: Affinity at the μ receptor ([35S]GTPγS binding, membranes); details: read-out: Mu Receptor Affinity calc Ki; Table 5; mu opioid receptor membrane solution

Row | SMILES | Ki ([1]; Table 2) | Ki ([1]; Table 4 (headed TABLE 45)) | further results
1 | O=C1Cc2ccccc2N1C1CCN(Cc2ccc(OCc3ccccc3)cc2)CC1 | 0.032 µM | – | –
2 | CC(C)C1CCC(N2CCC(N3C(=O)Cc4ccccc43)C(C)C2)CC1 (stereo not shown) | 0.167 µM | – | –
3 | CC=C1C(=O)N(C2CCN(Cc3ccc(C#N)cc3)CC2)c2ccccc21 | 7.65 µM | – | –
4 | O=c1oc2ccccc2n1C1CCN(C2Cc3ccccc3C2)CC1 | – | – | Ki ([1]; Table 1): 0.512 µM
5 | N#CCn1c(=NC#N)n(C2CCN(C3CCCCCCC3)CC2)c2ccccc21 | – | 0.00097 µM | –
6 | O=C1Cc2ccccc2N1C1CCN(C2Cc3ccccc3C2)CC1 | 0.0187 µM | – | –
7 | CCC1C(=O)N(C2CCN(C3Cc4ccccc4C3)CC2)c2ccccc21 (stereo not shown) | 0.043 µM | – | –
8 | CCn1c(=NC#N)n(C2CCN(C3CC4CCC3C4)CC2)c2ccccc21 (stereo not shown) | – | 0.323 µM | Ki (Mu opioid receptor): 1.65 µM
9 | CC=C1C(=O)N(C2CCN(CC3CCCCCCC3)CC2)c2ccccc21 | 0.0223 µM | – | –
10 | CCCC1CCC(N2CCC(n3c(=O)oc4ccccc43)CC2)CC1 (stereo not shown) | – | – | Ki (Mu opioid receptor): 0.145 µM
11 | CC=C1C(=O)N(C2CCN(Cc3ccc(OCc4ccccc4)cc3)CC2)c2ccccc21 | 0.516 µM | – | Ki (Mu opioid receptor): 1.15 µM
12 | CC=C1C(=O)N(C2CCN(C3CCC(CCC)CC3)CC2)c2ccccc21 (stereo not shown) | 0.019 µM | – | –
13 | CS(=O)(=O)NCCn1c(=NC#N)n(C2CCN(C3CCCCCCC3)CC2)c2ccccc21 | – | 0.078 µM | –
14 | O=C1Cc2ccccc2N1C1CCN(Cc2ccc(-c3ccccc3)cc2)CC1 | 1.36 µM | – | –
15 | O=c1oc2ccccc2n1C1CCN(Cc2ccc3ccccc3c2)CC1 | – | – | Ki ([1]; Table 1): 3.03 µM
16 | N#CN=c1[nH]c2ccccc2n1C1CCN(C2CCCCCCC2)CC1CO (stereo not shown) | – | 0.473 µM | –
17 | O=c1oc2ccccc2n1C1CCN(CC2CCCCCCC2)CC1 | – | – | Ki ([1]; Table 1): 0.064 µM
18 | CC=C1C(=O)N(C2CCN(C(C)CCC(C)C)CC2)c2ccccc21 (stereo not shown) | 0.0111 µM | – | –
19 | CC=C1C(=O)N(C2CCN(Cc3ccccc3)CC2)c2ccccc21 | 1.85 µM | – | –
20 | N#Cc1ccc(CN2CCC(N3C(=O)Cc4ccccc43)CC2)cc1 | 1.27 µM | – | –
21 | CC=C1C(=O)N(C2CCN(C3Cc4ccccc4C3)CC2)c2ccccc21 | 0.0207 µM | – | –
22 | O=c1oc2ccccc2n1C1CCN(Cc2cccc3ccccc23)CC1 | – | – | Ki ([1]; Table 1): 0.37 µM; Ki (Mu opioid receptor): 0.34 µM
23 | CC(C)CCC(C)N1CCC(N2C(=O)Cc3ccccc32)C(C)C1 (stereo not shown) | 4.33 µM | – | –

Row | SMILES | Ki ([1]; Table 2) | Ki ([1]; Table 4 (headed TABLE 45)) | further results
24 | CCn1c(=NC#N)n(C2CCN(C3CCC(C(C)C)CC3)CC2)c2ccccc21 (stereo not shown) | – | 0.0069 µM | –
25 | CCn1c(=NC#N)n(C2CCN(Cc3ccc4ccccc4c3)CC2)c2ccccc21 | – | 0.882 µM | –
26 | CC1CN(CC2CCCCCCC2)CCC1N1C(=O)Cc2ccccc21 (stereo not shown) | 0.189 µM | – | –
27 | O=C1Cc2ccccc2N1C1CCN(C2CCc3ccccc3C2)CC1 (stereo not shown) | 0.0287 µM | – | –
28 | CCCC1CCC(N2CCC(N3C(=O)Cc4ccccc43)C(C)C2)CC1 (stereo not shown) | 2.44 µM | – | –
29 | CCC1C(=O)N(C2CCN(C(C)CCC(C)C)CC2)c2ccccc21 (stereo not shown) | 0.004 µM | – | –
30 | CCn1c(=NC#N)n(C2CCN(CCC(c3ccccc3)c3ccccc3)CC2)c2ccccc21 | – | 0.08 µM | –
31 | CCn1c(=NC#N)n(C2CCN(C(C)CCC(C)C)CC2)c2ccccc21 (stereo not shown) | – | 0.076 µM | Ki (Mu opioid receptor): 0.015 µM
32 | CCn1c(=NC#N)n(C2CCN(Cc3ccc(OCc4ccccc4)cc3)CC2)c2ccccc21 | – | 1.66 µM | –
33 | CCn1c(=NC#N)n(C2CCN(C3Cc4ccccc4C3)CC2)c2ccccc21 | – | 0.089 µM | –
34 | CN(C)CCn1c(=NC#N)n(C2CCN(C3CCCCCCC3)CC2)c2ccccc21 | – | 0.018 µM | –
35 | CCn1c(=NC#N)n(C2CCN(C3CCCCCCC3)CC2)c2ccccc21 | – | 0.00557 µM | –
36 | N#CN=c1n(CCO)c2ccccc2n1C1CCN(C2CCCCCCC2)CC1 | – | 0.0064 µM | –
37 | O=C1Cc2ccccc2N1C1CCN(C2CC3CCC2C3)CC1 (stereo not shown) | 0.215 µM | – | –
38 | CCCC1CCC(N2CCC(N3C(=O)C(CC)c4ccccc43)CC2)CC1 (stereo not shown) | 0.04 µM | – | –
39 | O=c1oc2ccccc2n1C1CCN(C2c3ccccc3CCc3ccccc32)CC1 | – | – | Ki ([1]; Table 1): > 10 µM
40 | O=c1oc2ccccc2n1C1CCN(Cc2ccc(-c3ccccc3)cc2)CC1 | – | – | Ki ([1]; Table 1): > 10 µM
41 | CC(C)CCC(C)N1CCC(n2c(=O)oc3ccccc32)CC1 (stereo not shown) | – | – | Ki ([1]; Table 1): 0.06 µM
42 | CC1(C)COC2(CCC(N3CCC(n4c(=O)oc5ccccc54)CC3)CC2)OC1 | – | – | Ki ([1]; Table 1): > 10 µM
43 | CC=C1C(=O)N(C2CCN(Cc3ccc4ccccc4c3)CC2)c2ccccc21 | 0.63 µM | – | Ki (Mu opioid receptor): 0.137 µM
44 | O=c1oc2ccccc2n1C1CCN(C2CCc3ccccc3C2)CC1 (stereo not shown) | – | – | Ki ([1]; Table 1): 0.093 µM; Ki (Mu opioid receptor): 0.343 µM
45 | CC=C1C(=O)N(C2CCN(C3CC4CCC3C4)CC2)c2ccccc21 (stereo not shown) | 0.922 µM | – | –
46 | O=c1oc2ccccc2n1C1CCN(C2CCCCCCC2)CC1 | – | – | Ki ([1]; Table 1): 0.016 µM

Row | SMILES | Ki ([1]; Table 2) | Ki ([1]; Table 4 (headed TABLE 45)) | further results
47 | O=C1Cc2ccccc2N1C1CCN(Cc2cccc3ccccc23)CC1 | 0.092 µM | – | –
48 | CCC1C(=O)N(C2CCN(C3CC4CCC3C4)CC2)c2ccccc21 (stereo not shown) | 0.0827 µM | – | –
49 | O=c1oc2ccccc2n1C1CCN(CCc2ccccc2)CC1 | – | – | Ki ([1]; Table 1): 7.09 µM
50 | CCC1C(=O)N(C2CCN(CC3CCCCCCC3)CC2)c2ccccc21 (stereo not shown) | 0.009 µM | – | –
51 | CCn1c(=NC#N)n(C2CCN(CC3CCCCCCC3)CC2)c2ccccc21 | – | 0.0071 µM | –
52 | N#CN=c1n(CC(=O)O)c2ccccc2n1C1CCN(C2CCCCCCC2)CC1 | – | 0.201 µM | –
53 | COC(=O)Cn1c(=NC#N)n(C2CCN(C3CCCCCCC3)CC2)c2ccccc21 | – | 0.0033 µM | –
54 | O=C1Cc2ccccc2N1C1CCN(Cc2ccc3ccccc3c2)CC1 | 0.107 µM | – | –
55 | O=c1oc2ccccc2n1C1CCN(CCCC(c2ccc(F)cc2)c2ccc(F)cc2)CC1 | – | – | Ki ([1]; Table 1): 3.07 µM
56 | CC(C)CCC(C)N1CCC(N2C(=O)Cc3ccccc32)CC1 (stereo not shown) | 0.0074 µM | – | –
57 | N#Cc1ccc(CN2CCC(n3c(=O)oc4ccccc43)CC2)cc1 | – | – | Ki ([1]; Table 1): > 10 µM
58 | N#CN=c1[nH]c2cccnc2n1C1CCN(C2CCCCCCC2)CC1 | – | 3.74 µM | –
59 | CCC1C(=O)N(C2CCN(C3CCC4CCCCC4C3)CC2)c2ccccc21 (stereo not shown) | 0.0036 µM | – | –
60 | CCCC1CCC(N2CCC(n3c(=NC#N)n(CC)c4ccccc43)CC2)CC1 (stereo not shown) | – | 0.241 µM | Ki (Mu opioid receptor): 0.046 µM
61 | O=c1oc2ccccc2n1C1CCN(Cc2ccc(OCc3ccccc3)cc2)CC1 | – | – | Ki ([1]; Table 1): 2.17 µM
62 | O=c1oc2ccccc2n1C1CCN(CCC(c2ccccc2)c2ccccc2)CC1 | – | – | Ki ([1]; Table 1): 0.726 µM; Ki (Mu opioid receptor): 0.726 µM
63 | CCn1c(=NC#N)n(C2CCN(C3CCC4CCCCC4C3)CC2)c2ccccc21 (stereo not shown) | – | 0.0066 µM | –
64 | CC1CN(C2CCC3CCCCC3C2)CCC1N1C(=O)Cc2ccccc21 (stereo not shown) | 0.366 µM | – | –
65 | CCCCn1c(=NC#N)n(C2CCN(C3CCCCCCC3)CC2)c2ccccc21 | – | 0.00136 µM | –
66 | CC1CN(Cc2ccccc2)CCC1N1C(=O)Cc2ccccc21 (stereo not shown) | > 10 µM | – | –
67 | CCn1c(=NC#N)n(C2CCN(Cc3ccc(-c4ccccc4)cc3)CC2)c2ccccc21 | – | 5.56 µM | –
68 | CCn1c(=NC#N)n(C2CCN(C3c4ccccc4CCc4ccccc43)CC2)c2ccccc21 | – | > 10 µM | –

Read-outs that look alike come from different tables or passages of the source.
